Experimental findings from PubChem BioAssay AID2796 (The Scripps Research Institute Molecular Screening Center, 2010) are described below.

Amino acid sequences for entries named in this document (tags omitted).
UniProt P35869, whole entry: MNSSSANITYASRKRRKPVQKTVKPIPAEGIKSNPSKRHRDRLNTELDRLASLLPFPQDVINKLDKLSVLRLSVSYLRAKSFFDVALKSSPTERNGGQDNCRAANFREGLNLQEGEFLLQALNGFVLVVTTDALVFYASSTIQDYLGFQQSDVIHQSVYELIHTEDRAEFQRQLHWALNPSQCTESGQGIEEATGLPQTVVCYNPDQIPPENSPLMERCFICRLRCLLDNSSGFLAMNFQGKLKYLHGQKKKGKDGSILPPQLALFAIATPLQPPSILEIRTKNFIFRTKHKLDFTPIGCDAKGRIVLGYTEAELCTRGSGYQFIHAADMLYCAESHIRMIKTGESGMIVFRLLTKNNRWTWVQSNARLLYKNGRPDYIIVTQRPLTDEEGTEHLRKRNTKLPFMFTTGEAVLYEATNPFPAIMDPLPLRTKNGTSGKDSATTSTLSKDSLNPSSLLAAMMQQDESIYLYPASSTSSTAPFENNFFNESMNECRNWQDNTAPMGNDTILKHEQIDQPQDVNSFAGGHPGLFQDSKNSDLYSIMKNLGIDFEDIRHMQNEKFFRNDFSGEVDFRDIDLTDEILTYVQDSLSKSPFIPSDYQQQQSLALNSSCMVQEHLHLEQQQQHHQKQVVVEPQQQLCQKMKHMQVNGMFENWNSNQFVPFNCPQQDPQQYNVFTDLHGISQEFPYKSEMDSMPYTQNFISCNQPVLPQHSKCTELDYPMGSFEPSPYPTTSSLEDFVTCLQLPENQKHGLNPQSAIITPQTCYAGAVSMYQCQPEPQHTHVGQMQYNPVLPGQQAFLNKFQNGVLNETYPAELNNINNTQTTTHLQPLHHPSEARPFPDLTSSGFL

Each structure is given as a SMILES string. The entries are a selection whose mix differs from that of the whole data set. Activity calls are given as the source filed them. Cut-off read from the data, not from the text of the source: active = activation above about 47%; inactive = the rest.

In the test the target is Aryl hydrocarbon receptor (Homo sapiens) (UniProt P35869). The experiment in a line: AHR activators, primary screen, cell-based, luminescence, luciferase reporter, human (AID 2796).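 Note: 0% = vehicle wells and 100% = reference agonist.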 The conditions noted are these: AHR-responsive luciferase reporter cells, at 5 µM, hits give high values.
With `CCC(=O)N(c1ccccc1)C1(COC)CCN(CCn2nnn(CC)c2=O)CC1`, the activation is inactive: -2.02%.
Then `CCC(=O)N(c1ccccc1)C1(COC)CCN(CCc2cccs2)CC1`, with inactive: -0.55%.
